Data published in patent US11484625B2, “Stem cells and devices for bone regeneration” (Alfred E. Mann Institute for Biomedical Engineering at the …, priority 2017, dated 2022).
“Also recorded” adds a separate entry of the source.

Test system: femoral CSD
Test: Long bone critical-sized defect model (2-mm femoral ostectomy)
Type: in vivo, nude mice
Source text: Mice were placed in ventral recumbence with the left hind limb in extension. An anterolateral approach was used to expose the anterior surface of the femur. Briefly, after a lateral longitudinal cutaneous incision along the femur extending from the hip joint to the stifle joint was made, the fascia lata was incised to expose the full length of the femur, preserving the sciatic nerve caudally and the articular capsule distally. An anterior polyether ether ketone (PEEK) microlocking plate (MouseFix Plate; RISystem AG, Davos, Switzerland) was applied on the anterior femoral side. Next, four holes were drilled using a 0.3-mm drill bit (Drill Bit 0.30 mm; RISystem AG, Davos, Switzerland) and four self-tapping locking screws (MouseFix Screw 2 mm; RISystem AG, Davos, Switzerland) were inserted through the most proximal and most distal holes of the plate and locked to secure the plate. Gigli saws (0.22 mm; RISystem AG, Davos, Switzerland) were then inserted, one each in the two slots of the jig (Drill and Saw Guide; RISystem AG, Davos, Switzerland), and a 2-mm-long mid-diaphyseal femoral ostectomy was subsequently performed. The defect was either left empty or filled with different combinations of the PCL scaffolds and cells indicated to test long bone regenerative ability.
Radiographs were taken every two weeks to evaluate the bone union process until 3 months after the surgery. Immediately after euthanasia at 3 months post-surgery, all left femoral bones were excised. All overlaying muscle tissue was carefully removed. The femoral bones were fixed in 4% paraformaldehyde (pH 7.4) overnight. The plate and screws were removed and the samples were then decalcified in 10% EDTA (pH 7.4) for four weeks. Samples were passed through serial concentrations of ethanol for embedding in paraffin wax and sectioned at 7 μm using a microtome (Leica). Deparaffinized sections were stained with Hematoxylin and Eosin using standard procedures for general morphology.

BMP: Bone morphogenetic protein 2, growth factor
bone regeneration with multiple doses (injected in the defect site every 3 days for the first two weeks, 8-week period): union of the cortical bone at the defect site was detectable radiographically; also recorded: accelerate the healing | ectopic bone formation (multiple doses injected in the defect site): some ectopic bone formation surrounding the injury site | bone regenerative ability, compared (multiple doses, BMP vs IHH agonist): stronger bone regenerative ability than IHH agonist
